Laboratory results: patent US7132243B2, “Clonal expansion of T cells of unknown specificity and identification of ligand recognized by the clonally expanded T cells” (Juridical Foundation The Chemo-Sero-Therapeutic Research …, priority 2001, dated 2006)

Assays:
Assay in all cases: Proliferative response of human T cell clone to X19 peptide library plus IL-2 ([3H]-thymidine incorporation)
Assay type in all cases: cell-based
[1] = test system: SK2.11 human CD4 T cell clone; settings: clone SK2.11 (DQ6, AchRp75–87); 20 U/ml IL-2, 250 μM X19, mitomycin C-treated autologous PBMC, 72 h
Procedure: (§1) For investigating whether X19 peptide library is capable of stimulating CD4 T cells of various specificities, mitomycin C-treated PBMC, human CD4 T cell clones of various specificities and IL-2 were co-incubated in the presence or absence of X19 peptide library.
(§2) Human CD4 T cell clones examined in this study included OT1.1 (DP5 restriction; recognition of p53pl53–165 peptide); T31.1 (DP5 restriction; recognition of TEL/AML-1 peptide); DT13.2 (DQ6 restriction; recognition of DerfIp18–31 peptide); SK2.11 (DQ6 restriction; recognition of AchRp75–87 peptide); 29.28.1 (DR8 restriction; recognition of Rasp3–20 peptide); 29.15.2 (DR51 restriction; recognition of Rasp3–20 peptide); MK20.2 (DR53 restriction; recognition of GADp111–131 peptide); HY6.22 (DR4 restriction; recognition of DerfIp82–94 peptide); YT15.1 (DR15 restriction; recognition of BCGap84–100 peptide); SF36.16 (DR4 restriction; recognition of BCGap84–100 peptide); BC20.7 (DR14 restriction; recognition of BCGap84–100 peptide); BC33.5 (DR14 restriction; recognition of BCGap84–100 peptide); and BC42.1 (DR14 restriction; recognition of BCGap84–100 peptide).
(§3) Each of the human T cell clones was weakly stimulated with radiated corresponding autologous PBMC in the presence of 50 U/ml human recombinant IL-2 and the endogenous peptides recognized by each of the human T cell clones. 2×10^4 cells/well test T cell clone were incubated in 96-well flat bottom culture plate in a culture medium containing 2 mM L-glutamine, 100 U/ml penicillin, 100 μg/ml streptomycin and 10% heat-inactivated self plasma in RPMI 1640 medium, supplemented with 20 U/ml human recombinant IL-2 and 1×10^5 cells/well autologous PBMC treated with mitomycin C, in the presence or absence of 250 μM X19 peptide library. Each clone was incubated for 72 hours wherein 1 μCi/well [^3H]-thymidine was added for the last 16 hours to estimate the effect of X19 peptide library on the enhancement of proliferative response of various human T cell clones. The results are shown in Table 1 which indicates [^3H]-thymidine incorporation after a 3-day culture determined in triplicate. In Table 1, mean cpm values are shown and standard error was less than 20%.

[2] = test system: DT13.2 human CD4 T cell clone; settings: clone DT13.2 (DQ6, Der f Ip18–31); 20 U/ml IL-2, 250 μM X19, mitomycin C-treated autologous PBMC, 72 h
Procedure: as §1, §2, §3

[3] = test system: OT1.1 human CD4 T cell clone; settings: clone OT1.1 (DP5, p53p153–165); 20 U/ml IL-2, 250 μM X19, mitomycin C-treated autologous PBMC, 72 h
Procedure: as §1, §2, §3

[4] = test system: HY6.22 human CD4 T cell clone; settings: clone HY6.22 (DR4, Der f Ip82–94); 20 U/ml IL-2, 250 μM X19, mitomycin C-treated autologous PBMC, 72 h
Procedure: as §1, §2, §3

[5] = test system: BC42.1 human CD4 T cell clone; settings: clone BC42.1 (DR14, Vβ 5.4, BCGap84–100); 20 U/ml IL-2, 250 μM X19, mitomycin C-treated autologous PBMC, 72 h
Procedure: as §1, §2, §3

[6] = test system: 29.28.1 human CD4 T cell clone; settings: clone 29.28.1 (DR8, Rasp3–20); 20 U/ml IL-2, 250 μM X19, mitomycin C-treated autologous PBMC, 72 h
Procedure: as §1, §2, §3

[7] = test system: MK20.2 human CD4 T cell clone; settings: clone MK20.2 (DR53, GADp111–131); 20 U/ml IL-2, 250 μM X19, mitomycin C-treated autologous PBMC, 72 h
Procedure: as §1, §2, §3

[8] = test system: 29.15.2 human CD4 T cell clone; settings: clone 29.15.2 (DR51, Rasp3–20); 20 U/ml IL-2, 250 μM X19, mitomycin C-treated autologous PBMC, 72 h
Procedure: as §1, §2, §3

[9] = test system: SF36.16 human CD4 T cell clone; settings: clone SF36.16 (DR4, BCGap84–100); 20 U/ml IL-2, 250 μM X19, mitomycin C-treated autologous PBMC, 72 h
Procedure: as §1, §2, §3

[10] = test system: BC33.5 human CD4 T cell clone; settings: clone BC33.5 (DR14, Vβ 6.1, BCGap84–100); 20 U/ml IL-2, 250 μM X19, mitomycin C-treated autologous PBMC, 72 h
Procedure: as §1, §2, §3

[11] = test system: T31.1 human CD4 T cell clone; settings: clone T31.1 (DP5, TEL/AML-1); 20 U/ml IL-2, 250 μM X19, mitomycin C-treated autologous PBMC, 72 h
Procedure: as §1, §2, §3

[12] = test system: YT15.1 human CD4 T cell clone; settings: clone YT15.1 (DR15, BCGap84–100); 20 U/ml IL-2, 250 μM X19, mitomycin C-treated autologous PBMC, 72 h
Procedure: as §1, §2, §3

[13] = test system: BC20.7 human CD4 T cell clone; settings: clone BC20.7 (DR14, Vβ 13.3, BCGap84–100); 20 U/ml IL-2, 250 μM X19, mitomycin C-treated autologous PBMC, 72 h
Procedure: as §1, §2, §3

IL-2: human recombinant IL-2
Reactivity ([3H]-thymidine incorporation, mean cpm) [1]: 2,264 cpm | Reactivity ([3H]-thymidine incorporation, mean cpm) [2]: 1,927 cpm | Reactivity ([3H]-thymidine incorporation, mean cpm) [3]: 2,338 cpm | Reactivity ([3H]-thymidine incorporation, mean cpm) [4]: 2,005 cpm | Reactivity ([3H]-thymidine incorporation, mean cpm) [5]: 1,914 cpm | Reactivity ([3H]-thymidine incorporation, mean cpm) [6]: 1,502 cpm | Reactivity ([3H]-thymidine incorporation, mean cpm) [7]: 3,443 cpm | Reactivity ([3H]-thymidine incorporation, mean cpm) [8]: 1,280 cpm | Reactivity ([3H]-thymidine incorporation, mean cpm) [9]: 2,407 cpm | Reactivity ([3H]-thymidine incorporation, mean cpm) [10]: 3,201 cpm | Reactivity ([3H]-thymidine incorporation, mean cpm) [11]: 1,312 cpm | Reactivity ([3H]-thymidine incorporation, mean cpm) [12]: 1,729 cpm | Reactivity ([3H]-thymidine incorporation, mean cpm) [13]: 1,421 cpm
